Marks after values point to notes of the source that are not given here.
Legend:
[1] = molecular target: T1, human erythrocyte acetylcholinesterase (Homo sapiens, UniProt P22303); test: AChE inhibition, modified Ellman's method; type: biochemical; conditions: IC50 BuChE/IC50 AChE; theoretical values from extrapolated plots
T1 construct: solution of hemolyzed erythrocytes diluted 400-fold; from tissue; host or cells: hemolyzed erythrocytes from blood of healthy human donors

Amino acid sequences for entries named in this document (tags omitted). Residues count along the entry.
UniProt P22303, 32-617 isoform P22303-2 limits assumed: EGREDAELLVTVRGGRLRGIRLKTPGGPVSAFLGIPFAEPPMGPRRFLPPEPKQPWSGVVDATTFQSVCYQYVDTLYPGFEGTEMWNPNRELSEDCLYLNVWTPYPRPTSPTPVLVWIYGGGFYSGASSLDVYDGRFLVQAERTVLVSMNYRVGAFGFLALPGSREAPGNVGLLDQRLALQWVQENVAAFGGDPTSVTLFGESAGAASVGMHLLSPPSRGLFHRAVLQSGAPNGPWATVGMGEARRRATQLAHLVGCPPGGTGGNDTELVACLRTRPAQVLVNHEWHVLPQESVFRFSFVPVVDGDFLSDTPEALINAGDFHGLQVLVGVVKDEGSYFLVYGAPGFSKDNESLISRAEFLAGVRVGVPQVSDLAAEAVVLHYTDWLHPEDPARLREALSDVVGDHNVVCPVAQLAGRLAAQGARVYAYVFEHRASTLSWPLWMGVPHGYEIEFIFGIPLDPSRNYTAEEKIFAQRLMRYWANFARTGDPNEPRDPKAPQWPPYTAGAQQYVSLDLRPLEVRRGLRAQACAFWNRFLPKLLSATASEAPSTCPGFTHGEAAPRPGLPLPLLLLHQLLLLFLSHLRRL
UniProt P06276, 29-602: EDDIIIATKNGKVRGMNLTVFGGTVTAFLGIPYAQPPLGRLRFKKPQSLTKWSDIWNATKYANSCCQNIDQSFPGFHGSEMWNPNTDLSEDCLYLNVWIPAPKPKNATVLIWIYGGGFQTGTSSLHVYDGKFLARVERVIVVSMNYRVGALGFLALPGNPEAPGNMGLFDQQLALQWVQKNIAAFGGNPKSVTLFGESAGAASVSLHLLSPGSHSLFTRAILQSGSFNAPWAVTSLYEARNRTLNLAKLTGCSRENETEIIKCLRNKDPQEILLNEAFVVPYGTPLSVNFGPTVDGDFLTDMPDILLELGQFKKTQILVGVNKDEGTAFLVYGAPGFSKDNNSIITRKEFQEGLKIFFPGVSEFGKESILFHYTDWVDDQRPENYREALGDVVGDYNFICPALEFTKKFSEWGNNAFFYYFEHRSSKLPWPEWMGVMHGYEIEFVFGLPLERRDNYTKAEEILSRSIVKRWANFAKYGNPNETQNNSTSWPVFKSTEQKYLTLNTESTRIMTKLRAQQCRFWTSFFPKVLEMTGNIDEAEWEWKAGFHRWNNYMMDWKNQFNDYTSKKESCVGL

[2] = molecular target: T2, human plasma butyrylcholinesterase (Homo sapiens, UniProt P06276); test: BuChE inhibition, modified Ellman's method; type: biochemical
T2 construct: The solution of plasma 200-fold diluted with 0.9% NaCl; from tissue; host or cells: citrated plasma from blood of healthy human donors

AChE = AChE (Homo sapiens, UniProt P22303); test: Synergism of antipsychotics with donepezil/rivastigmine (binary mixtures), AChE; conditions: ComboSyn;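 also: antipsychotic concentration kept fixed across all measurements, selected from estimated therapeutic plasma levels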
BuChE = BuChE (Homo sapiens, UniProt P06276); test: Synergism of antipsychotics with donepezil/rivastigmine (binary mixtures), BuChE; conditions: ComboSyn;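 also: combination index derived by median-effect analysis of combined drug effects on the cholinesterase, with values below 1 meaning synergism, exactly 1 additivity and above 1 antagonism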
[3] = rivastigmine 5 μmol/L + antipsychotic at TPCmax
[4] = donepezil 100 μmol/L + antipsychotic at TPCmax
[5] = rivastigmine 0.5 μmol/L + antipsychotic at TPCmax
[6] = rivastigmine 0.75 μmol/L + antipsychotic at TPCmax
[7] = rivastigmine 1 μmol/L + antipsychotic at TPCmax
[8] = rivastigmine 2.5 μmol/L + antipsychotic at TPCmax

CN(C)CCCN1c2ccccc2Sc2ccccc21 [Promazine, promazine]
SI AChE [1]: 0.05 * | SI BuChE ([2]; IC50 AChE/IC50 BuChE, theoretical values from extrapolated plots): 19 * | CI (combination index), AChE (AChE; donepezil 0.005 μmol/L + antipsychotic at TPCmax, CI < 1 synergism, > 1 antagonism): 1.34 | CI (combination index), AChE (AChE; donepezil 0.01 μmol/L + antipsychotic at TPCmax): 1.04 | CI (combination index), AChE (AChE; donepezil 0.02 μmol/L + antipsychotic at TPCmax): 1.12 | CI (combination index), AChE (AChE; donepezil 0.05 μmol/L + antipsychotic at TPCmax): 0.97 | CI (combination index), AChE (AChE; donepezil 0.1 μmol/L + antipsychotic at TPCmax): 0.80 | CI (combination index), AChE (AChE; [3]): 0.52 | CI (combination index), AChE (AChE; rivastigmine 10 μmol/L + antipsychotic at TPCmax): 0.66 | CI (combination index), AChE (AChE; rivastigmine 15 μmol/L + antipsychotic at TPCmax): 0.62 | CI (combination index), AChE (AChE; rivastigmine 25 μmol/L + antipsychotic at TPCmax): 0.68 | CI (combination index), AChE (AChE; rivastigmine 40 μmol/L + antipsychotic at TPCmax): 0.66 | CI (combination index), AChE (AChE; rivastigmine 50 μmol/L + antipsychotic at TPCmax): 0.72 | CI (combination index), AChE (AChE; rivastigmine 75 μmol/L + antipsychotic at TPCmax): 0.72 | CI (combination index), AChE (AChE; rivastigmine 100 μmol/L + antipsychotic at TPCmax): 0.81 | CI (combination index), BuChE (BuChE; donepezil 2 μmol/L + antipsychotic at TPCmax): 0.61 | CI (combination index), BuChE (BuChE; donepezil 5 μmol/L + antipsychotic at TPCmax): 0.56 | CI (combination index), BuChE (BuChE; donepezil 10 μmol/L + antipsychotic at TPCmax): 0.56 | CI (combination index), BuChE (BuChE; donepezil 20 μmol/L + antipsychotic at TPCmax): 0.64 | CI (combination index), BuChE (BuChE; donepezil 50 μmol/L + antipsychotic at TPCmax): 0.78 | CI (combination index), BuChE (BuChE; [4]): 0.81 | CI (combination index), BuChE (BuChE; rivastigmine 0.05 μmol/L + antipsychotic at TPCmax): 0.66 | CI (combination index), BuChE (BuChE; rivastigmine 0.1 μmol/L + antipsychotic at TPCmax): 0.67 | CI (combination index), BuChE (BuChE; rivastigmine 0.25 μmol/L + antipsychotic at TPCmax): 0.85 | CI (combination index), BuChE (BuChE; [5]): 1.04 | CI (combination index), BuChE (BuChE; [6]): 1.14 | CI (combination index), BuChE (BuChE; [7]): 1.30 | CI (combination index), BuChE (BuChE; [8]): 1.78 | CI (combination index), BuChE (BuChE; [3]): 2.27

OCCOCCN1CCN(C2=Nc3ccccc3Sc3ccccc32)CC1 [Quetiapine, quetiapine]
CI (combination index), BuChE (BuChE; [4]): 0.95 | CI (combination index), BuChE (BuChE; [5]): 1.03 | CI (combination index), BuChE (BuChE; [6]): 1.04 | CI (combination index), BuChE (BuChE; [7]): 1.00 | CI (combination index), BuChE (BuChE; [8]): 1.01 | CI (combination index), BuChE (BuChE; [3]): 1.10

CCN(C)C(=O)Oc1cccc([C@H](C)N(C)C)c1 [Rivastigmine, rivastigmine]
IC50 ([2]; experimental data, mean ± SD, n = 6–9): 950 ± 90 nM
